In patent US7862824B2, “Enhancement of GLP-2 activity of suppressing appetite” (1149336 Ontario, Inc., priority 2001, dated 2011):

Molecular target: T1, rat GLP-1 receptor (Rattus norvegicus, UniProt P32301)
T1 construct: expressed in transfected cells; host or cells: BHK (baby hamster kidney fibroblast) cells, stably transfected
T1 sequence (P32301 22-463): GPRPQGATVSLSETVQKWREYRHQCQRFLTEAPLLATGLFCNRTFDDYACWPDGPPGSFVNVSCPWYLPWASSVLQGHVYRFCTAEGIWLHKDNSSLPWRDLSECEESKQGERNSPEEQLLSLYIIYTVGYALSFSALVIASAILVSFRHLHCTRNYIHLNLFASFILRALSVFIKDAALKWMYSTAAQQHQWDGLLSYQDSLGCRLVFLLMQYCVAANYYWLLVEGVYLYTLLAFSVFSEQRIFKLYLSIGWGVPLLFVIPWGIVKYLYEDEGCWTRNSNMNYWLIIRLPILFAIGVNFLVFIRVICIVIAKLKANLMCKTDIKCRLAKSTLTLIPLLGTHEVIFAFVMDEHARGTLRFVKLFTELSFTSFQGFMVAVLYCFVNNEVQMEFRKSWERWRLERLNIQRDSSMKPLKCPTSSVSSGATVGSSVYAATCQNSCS
Test: cAMP accumulation in BHK cells stably expressing the rat GLP-1 receptor (RIA)
Assay type: cell-based
Details: BHK-GLP-1R cells

## Rat GLP-1 (7-36)NH2
Agonist alone
  EC50: 0.041 nM
In the presence of 500 nM Exendin (9-39)
  EC50: 0.57 nM
In the presence of 1000 nM Exendin (9-39)
  EC50: 4.28 nM
